# Reference: patent publication US9493436B2, “Tyrosine phosphatase inhibitors and uses thereof to modulate the activity of enzymes involved in the pathology of Mycobacterium tuberculosis” (priority 2011, dated 2016)
# Chains of the proteins cited; added tags and fusions are not shown.
# UniProt Q06124, whole entry, species assumed: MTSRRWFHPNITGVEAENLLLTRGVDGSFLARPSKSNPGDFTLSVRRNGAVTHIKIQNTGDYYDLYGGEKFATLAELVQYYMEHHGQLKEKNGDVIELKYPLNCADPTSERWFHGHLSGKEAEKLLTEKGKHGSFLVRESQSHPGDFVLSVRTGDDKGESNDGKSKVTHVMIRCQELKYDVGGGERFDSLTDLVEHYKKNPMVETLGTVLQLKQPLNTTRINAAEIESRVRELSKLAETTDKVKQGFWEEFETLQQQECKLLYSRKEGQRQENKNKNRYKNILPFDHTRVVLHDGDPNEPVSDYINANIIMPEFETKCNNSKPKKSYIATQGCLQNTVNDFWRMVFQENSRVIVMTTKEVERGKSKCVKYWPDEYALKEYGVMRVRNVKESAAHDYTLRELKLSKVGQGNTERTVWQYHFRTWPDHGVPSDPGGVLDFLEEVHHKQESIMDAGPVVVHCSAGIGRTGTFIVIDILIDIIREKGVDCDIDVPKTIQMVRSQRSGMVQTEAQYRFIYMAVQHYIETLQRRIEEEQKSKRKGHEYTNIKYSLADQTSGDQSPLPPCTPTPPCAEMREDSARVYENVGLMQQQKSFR
# UniProt P51452, whole entry, species assumed: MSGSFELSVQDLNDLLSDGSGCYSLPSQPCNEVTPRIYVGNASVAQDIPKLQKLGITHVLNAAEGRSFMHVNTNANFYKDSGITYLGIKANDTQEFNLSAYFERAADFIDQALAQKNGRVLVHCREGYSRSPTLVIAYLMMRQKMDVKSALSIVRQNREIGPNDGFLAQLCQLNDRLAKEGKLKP
# Tests used:
# SHP2 = SHP2 (Homo sapiens, UniProt Q06124); details: read-out: IC50 (μM) SHP2
# VHR = VHR (Homo sapiens, UniProt P51452); details: read-out: IC50 (μM) VHR
# HePTP = target: T1, HePTP (Homo sapiens, UniProt P35236); type: biochemical
# T1 sequence (P35236 1-360): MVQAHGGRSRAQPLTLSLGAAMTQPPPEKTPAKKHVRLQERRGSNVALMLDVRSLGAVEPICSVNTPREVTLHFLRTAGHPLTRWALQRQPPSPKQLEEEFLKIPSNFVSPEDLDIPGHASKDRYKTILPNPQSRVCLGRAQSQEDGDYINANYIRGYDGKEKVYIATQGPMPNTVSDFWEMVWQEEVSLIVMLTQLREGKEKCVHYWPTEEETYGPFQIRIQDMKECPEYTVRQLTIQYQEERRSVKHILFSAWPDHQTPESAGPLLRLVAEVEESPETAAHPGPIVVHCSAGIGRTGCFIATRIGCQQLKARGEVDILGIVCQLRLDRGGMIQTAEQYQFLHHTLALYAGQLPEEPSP
# LMWPTP = target: T2, LMWPTP (Homo sapiens, UniProt P24666); experiment: PTP selectivity panel: LMWPTP; type: biochemical
# T2 sequence (P24666 1-158): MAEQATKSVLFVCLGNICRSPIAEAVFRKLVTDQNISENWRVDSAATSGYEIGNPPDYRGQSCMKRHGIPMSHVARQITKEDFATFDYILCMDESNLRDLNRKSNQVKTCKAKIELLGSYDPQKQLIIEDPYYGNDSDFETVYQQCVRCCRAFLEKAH
# VHX = target: T3, VHX (Homo sapiens, UniProt Q9NRW4); type: biochemical
# T3 sequence (Q9NRW4 1-184): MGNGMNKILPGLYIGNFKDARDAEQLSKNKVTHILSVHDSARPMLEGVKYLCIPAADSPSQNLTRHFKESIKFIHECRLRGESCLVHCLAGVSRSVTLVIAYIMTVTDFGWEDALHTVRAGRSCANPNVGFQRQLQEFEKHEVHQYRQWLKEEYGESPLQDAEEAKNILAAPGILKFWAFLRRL
smiles,measurement,setting,value
O=C(O)c1cc2c(C#Cc3ccc(OC(F)(F)F)cc3)c(-c3ccccc3)oc2cc1O [33 (L01Z09)],IC50,SHP2,1.8 ± 0.6 µM
same,IC50,VHR,2.1 ± 0.2 µM
O=C(O)c1cc2c(C#Cc3cccc(C(F)(F)F)c3)c(-c3ccccc3)oc2cc1O [32 (L01Z08)],IC50,HePTP,2.1 ± 0.3 µM
O=C(O)c1cc2c(C#Cc3cc(F)cc(F)c3)c(-c3ccccc3)oc2cc1O [31 (L01Z06)],IC50,LMWPTP,2.9 ± 0.3 µM
same,IC50,VHX,2.9 ± 0.3 µM
